Screening data as filed in PubChem BioAssay.
Most compounds without a hit are left out; they make up all but 1.1% or so of the library.
miR-21 reporter: miR-21 reporter, rising signal. HeLa miR-21 FLuc reporter, luciferase, 48 h. Potency, µM (titrated, usually from 38.3 µM). 340,000 tested, under 10 active. AID 2288; active = well fitted rising curve with a large enough effect; inconclusive = small, poorly fitted or top-dose-only effect; inactive = no such curve, though single readings can be large or run the other way;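 also: miR-21 action dims this reporter so a rising signal means less miR-21 action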
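Luminescence from a firefly luciferase reporter carrying a miR-21 binding site downstream, stably expressed under a CMV promoter in HeLa cells that make miR-21 endogenously, reports miRNA modulation after 48 h compound exposure up to approximately 40uM final.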
GALK inhibitor: galactokinase (human) inhibition. P51570. Purified GALK, Kinase-Glo residual ATP luminescence. 270,000 compounds, 0.007% hits. Potency, µM (doses to about 57.5 µM), actives largely listed as inhibitors. AID 1868
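Luminescence from leftover ATP (Ultra-Glo luciferase/luciferin) served as read-out after a 1 h room-temperature reaction of 5 nM GALK with 35 uM ATP and 100 uM galactose.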
TrxR1 substrate: substrates of rat thioredoxin reductase 1 | purified TrxR1 substrate turnover, NADPH consumption readout | Potency, µM (top dose mostly 114 µM) | 390,000 compounds, 0.01% hits; note: nearly all actives have a fitted effect of over 50% in size
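Rat TrxR1, dispensed at 90 nM, was prereduced with 400 uM NADPH (final) for 5 min at ~22 deg C, then incubated with compound 15 min before 400 uM selenite. A first-read NADPH fluorescence drop versus no-compound background flagged substrates.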
rTrxR1 inhibitor: inhibitors of rat thioredoxin reductase 1 | recombinant rTrxR1, NADPH fluorescence consumption, selenite substrate | O89049 | AID 588453 | Potency, µM (top dose mostly 114 µM), most hits filed as inhibitors | 390,000 compounds, 1% hits; note: nearly all actives have a fitted effect of over 65% in size
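Rat TrxR1 (90 nM in the dispensed reagent) was pre-reduced with 400 uM NADPH for 5 min at room temperature, then incubated with compound for 15 min. After 400 uM selenite was added, NADPH fluorescence (Ex 340/Em 450 nm) was followed for 8 min.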
PINK1 modulator: PINK1 expression modulation; Potency, µM (series often up to 76.6 µM), usual class: activators; PINK1 immunofluorescence, high-content cytometry, 24 h; 410,000 compounds, 0.2% hits; AID 624263; active = well fitted activation curve with a large enough effect; inconclusive = small, poorly fitted or top-dose-only effect; cell line not stated here; note: nearly all actives have a fitted effect of over 65% in size
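A stable cell line was treated with compounds at 5 concentrations for 24 hours, with CCCP as control. PINK1 levels and mitochondrial localization were measured by immunofluorescence with mitochondrial, cell and nuclear markers after fixation, read by laser-scanning cytometry.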
Numbers stand for hits. Unless noted, calls come from the whole dose curve; as a rule, active = well fitted curve in the direction sought with a large enough effect; inconclusive = small, poorly fitted or top-dose-only effect, or another doubt; inactive = no such curve, though single readings can be large; an effect the other way counts as inactive or inconclusive.

Screening C=CCOc1ccc(/C(O)=C2/C(=O)C(=O)N(CCCN3CCOCC3)C2c2ccccc2)cc1 (stereo not drawn) returned TrxR1 substrate inactive, rTrxR1 inhibitor 25µM and PINK1 modulator inactive.
Screening CCOc1ccc(C2/C(=C(\O)c3ccc4c(c3)OCCO4)C(=O)C(=O)N2CCCN2CCOCC2)cc1 (stereo not drawn) returned miR-21 reporter inactive, GALK inhibitor inactive, TrxR1 substrate inactive, rTrxR1 inhibitor inconclusive and PINK1 modulator inactive.
For CCOc1ccc(C2/C(=C(\O)c3ccc4c(c3)OCCO4)C(=O)C(=O)N2CCCN2CCOCC2)cc1OC (stereo not drawn) the results were miR-21 reporter inactive, GALK inhibitor inactive, TrxR1 substrate inactive, rTrxR1 inhibitor 50µM and PINK1 modulator inactive.
For O=C1C(=O)N(CCN2CCOCC2)C(c2ccccn2)/C1=C(/O)c1ccccc1 (stereo not drawn) the results were miR-21 reporter inactive, GALK inhibitor inactive, TrxR1 substrate inactive, rTrxR1 inhibitor 18µM and PINK1 modulator inactive.
`CCN(CC)CCN1C(=O)C(=O)/C(=C(/O)c2ccc3c(c2)CC(C)O3)C1c1ccc(OC)cc1` (stereo not drawn) gave miR-21 reporter inactive, GALK inhibitor inactive, TrxR1 substrate inactive, rTrxR1 inhibitor 45µM and PINK1 modulator inactive.
Screening Cc1cc(C)n(-c2cccc(C(=O)NCC3Cc4cccc(-c5cccnc5)c4O3)c2)n1 (stereo not drawn) returned PINK1 modulator inactive.
`COc1ccc(C2/C(=C(\O)c3ccc4c(c3)OCCO4)C(=O)C(=O)N2CCCN(C)C)c(OC)c1` (stereo not drawn) gave miR-21 reporter inactive, GALK inhibitor inactive, TrxR1 substrate inactive, rTrxR1 inhibitor 10µM and PINK1 modulator inactive.
Screening COc1ccc(/C(O)=C2/C(=O)C(=O)N(CCN3CCOCC3)C2c2ccccn2)cc1OC (stereo not drawn) returned miR-21 reporter inactive, GALK inhibitor inactive, TrxR1 substrate inactive, rTrxR1 inhibitor 45µM and PINK1 modulator inactive.
Cc1[nH]c2ccccc2c1C(=O)CN1CCC(C)CC1 was read as miR-21 reporter inactive, GALK inhibitor inactive, TrxR1 substrate inactive, rTrxR1 inhibitor 35µM and PINK1 modulator inactive.
Screening Cc1cnc(-n2ncc(C(=O)NCCc3ccccn3)c2C)nc1-c1ccc(F)cc1 returned PINK1 modulator inactive.
`CC(C)(CO)NC(=O)c1cnn(-c2ncc3c(n2)-c2ccccc2CC3)c1C1CC1` gave PINK1 modulator inactive.
`CCOC(=O)/C=C/C(=O)OCC(=O)Nc1ccc(C)cc1` gave miR-21 reporter inactive, GALK inhibitor inactive, TrxR1 substrate inactive, rTrxR1 inhibitor 40µM and PINK1 modulator inactive.
`CSc1cccc(NC(=O)c2cnn(-c3ccc(F)cc3)c2-n2cccc2)c1` gave miR-21 reporter inconclusive, TrxR1 substrate inactive, rTrxR1 inhibitor inactive and PINK1 modulator inactive.
For N#CCSc1nc2c(c(=O)n1Cc1ccco1)C1(CCCC1)Cc1ccccc1-2 the results were miR-21 reporter inactive, GALK inhibitor inactive, TrxR1 substrate inactive, rTrxR1 inhibitor 45µM and PINK1 modulator inactive.
For CCCn1c(SCC#N)nc2c(c1=O)C1(CCCC1)Cc1ccccc1-2 the results were miR-21 reporter inactive, GALK inhibitor inactive, TrxR1 substrate inactive, rTrxR1 inhibitor inactive and PINK1 modulator inactive.
For CCCN(CCC)S(=O)(=O)c1ccc2c(c1)N(CC(=O)NCc1ccc(F)cc1Cl)C(=O)CS2 the results were miR-21 reporter inconclusive, TrxR1 substrate inactive, rTrxR1 inhibitor inactive and PINK1 modulator inactive.
`Cc1cc(F)ccc1S(=O)(=O)NCC(c1ccco1)S(=O)(=O)c1cccs1` (stereo not drawn) gave miR-21 reporter inactive, TrxR1 substrate inactive, rTrxR1 inhibitor 1.1µM and PINK1 modulator inactive.
Screening Cc1ccc(C)c(C(=O)N2CCC(C3(c4ccccn4)NC(=O)N(CC4CCCO4)C3=O)CC2)c1 (stereo not drawn) returned PINK1 modulator inactive.
`O=C(c1ccccc1)C1CN(Cc2ccccc2)CCC1(O)c1ccccc1` (stereo not drawn) gave miR-21 reporter inactive, GALK inhibitor inactive, TrxR1 substrate inactive, rTrxR1 inhibitor 7.1µM and PINK1 modulator inactive.
